Laboratory results from publication PMC7968374 (Bioorganic & medicinal chemistry, 2021).

How the values were obtained:
Hsp27c T61L (Site 1) = conditions: T61L vs wild type; minor effect
Hsp27c L21A (Site 1) = conditions: L21A vs wild type; minor effect
Hsp27c C59A (Site 1) = conditions: C59A vs wild type; minor effect
Hsp27c I56A (Site 3) = conditions: I56A vs wild type
Hsp27c V23A (Site 3) = conditions: V23A vs wild type

## O=[N+]([O-])c1ccc(Oc2ccc(F)cc2F)c([N+](=O)[O-])c1 [Compound 12, 1-(2,4-difluorophenoxy)-2,4-dinitrobenzene]
Hsp27c T61L (Site 1)
  effect on apparent binding affinity: 2–4 fold
Hsp27c L21A (Site 1)
  effect on apparent binding affinity: 2–4 fold
Hsp27c C59A (Site 1)
  effect on apparent binding affinity: 2–4 fold
Hsp27c I56A (Site 3)
  affinity weakened: ~ 4 fold
Hsp27c V23A (Site 3)
  affinity weakened: ~ 4 fold
